Values of other authors as cited in patent US9551722B2, “Amyloid binding agents” (The Regents of the University of California, priority 2009, dated 2017).

The chains behind the UniProt entries cited, without tags or fusion partners. Residues count along the entry.
UniProt P05067, 672-713 limits assumed: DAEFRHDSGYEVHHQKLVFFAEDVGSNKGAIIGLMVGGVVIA

Target: T1, pre-aggregated Aβ(1-42) peptide (Homo sapiens, UniProt P05067)
T1 construct: preaggregated Aβ(1-42) peptides
Conditions: literature value; read-out: Reported Kd; cited from earlier work

## Cc1ccc2c(c1)sc(-c1ccc(N(C)C)cc1)[n+]2C [ThT, Thioflavin T]
  Kd: 2 µM
